# Reported vapor pressure values for industrial, environmental and drug-like chemicals

Source: data files of OPERA 2.9 (Mansouri et al.), github.com/kmansouri/OPERA.

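OPERA's authors assembled the values from existing databases and did not measure them anew. One number stands for a compound and property, with no spread given. Method and conditions are not stated for these values. A value may pool stereoisomers or salt forms, and the file does not say which form was measured. Some upstream entries may be estimates or bounds without being marked so.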

Vapor pressures (log10 mmHg) refer to near room temperature, 15 to 30 °C; higher is more volatile.
Cells with "n/a" have no entry in this list.
"via" names the databases from which the curators took the value.

structure (SMILES),name,log vapor pressure (log10 mmHg),via
Cc1ccc(N)c(Cl)c1O,5-Amino-6-chloro-o-cresol,-3.34,eChemPortal
CC(C)(O)C(=O)c1ccc(OCCO)cc1,2-Hydroxy-1-[4-(2-hydroxyethoxy)phenyl]-2-methylpropan-1-one,-6.28,eChemPortal
Clc1cccc(-c2c(Cl)c(Cl)cc(Cl)c2Cl)c1,"2,3,3',5,6-Pentachlorobiphenyl",-4.355,OCHEM
Brc1cccc2c1-c1ccccc1C21c2ccccc2-c2ccccc21,n/a,-8.223,eChemPortal
C=CC(=O)Oc1ccc(C(=O)Oc2ccc(C(=O)O[C@@H]3CO[C@H]4[C@@H]3OC[C@H]4OC(=O)c3ccc(OC(=O)c4ccc(OC(=O)C=C)cc4)c(OC)c3)cc2OC)cc1,n/a,-7.974,eChemPortal
C=C(C)C(=O)OCC(F)(F)F,"2,2,2-Trifluoroethyl methacrylate",1.285,eChemPortal
C=CS(=O)(=O)CS(=O)(=O)C=C,"Ethene, 1,1'-[methylenebis(sulfonyl)]bis-",-4.657,eChemPortal
Cc1cccc2sc(N)nc12,2-Amino-4-methylbenzothiazole,-3.401,eChemPortal
C=CCOCC(O)CS(=O)(=O)[O-].[Na+] (stereo not drawn),Sodium 3-(allyloxy)-2-hydroxypropanesulphonate,-5.739,eChemPortal
O=S(=O)(Nc1ccc(O)cc1)c1ccccc1,"Benzenesulfonamide, N-(4-hydroxyphenyl)-",-9.084,eChemPortal
FCOC(F)(F)C(F)(F)C(F)(F)F,"1,1,1,2,2,3,3-Heptafluoro-3-(fluoromethoxy)propane",2.571,ICF
CC(S)C(=O)O (stereo not drawn),"Propanoic acid, 2-mercapto-",-1.025,eChemPortal
O=S1(=O)CCCO1,"1,3-Propane sultone",-2.444,eChemPortal
CC/C=C\CCO,(Z)-3-Hexen-1-ol,0.229,eChemPortal
CCN(C)C,"N,N-Dimethylethylamine",2.691,eChemPortal
CCCCCCCCOP(=O)(OCCCCCCCC)c1ccccc1,"Phosphonic acid, P-phenyl-, dioctyl ester",-5.71,OCHEM
Cc1ccc2c(c1)OCC(=O)CO2,Methyl benzodioxepinone,-2.185,eChemPortal
C=C[Si](C)(Cl)Cl,"Silane, dichloroethenylmethyl-",1.672,eChemPortal
CCC(=O)OCc1ccccc1,Benzyl propanoate,-1.134,eChemPortal
CC(C)(C)C(=O)OCCc1ccccc1,2-Phenylethyl pivalate,-2.021,eChemPortal
CCCCCCCCCCCCCCCCCCCCCCOC(=O)c1ccc(O)cc1,Docosyl 4-hydroxybenzoate,-6.085,eChemPortal
CCCC1=CC(=O)OC1O (stereo not drawn),5-Hydroxy-4-propylfuran-2(5H)-one,-3.954,eChemPortal
NNC(=O)CCCCC(=O)NN,Hexanedihydrazide,-9.648,eChemPortal
N#Cc1cccc([N+](=O)[O-])c1C#N,"1,2-Benzenedicarbonitrile, 3-nitro-",-6.824,eChemPortal
Cc1cc(C)c(O)c(C(c2cc(C)cc(C)c2O)C(C)C)c1,"Phenol, 2,2'-(2-methylpropylidene)bis[4,6-dimethyl-",-7.527,eChemPortal
CCCCCCCCCOC(C)=O,Nonyl acetate,-1.474,eChemPortal
C=C(Cl)C(=C)Cl,"2,3-Dichloro-1,3-butadiene",1.952,eChemPortal
CC(C)CCCCCCO,7-Methyl-1-octanol,-2.222,eChemPortal
CO[Si](C)(OC)OC,Trimethoxymethylsilane,1.06,eChemPortal
CC1=CCCC(C)(C)C1CCC(C)C=O (stereo not drawn),"2-Methyl-4-(2,6,6-trimethylcyclohex-2-en-1-yl)butanal",-0.852,eChemPortal
C=C(C)C(=O)OCCOC,2-Methoxyethyl methacrylate,-0.65,eChemPortal
O=c1[nH]sc2ccccc12,"1,2-Benzisothiazolin-3-one",-5.634,"PubChem, eChemPortal"
CCCCCC(C)CO (stereo not drawn),2-Methylheptan-1-ol,-1.426,eChemPortal
CCCCCCCCCCCCCCCCOC(=O)Oc1c(Cl)cc(C(=O)OCC)cc1Cl,n/a,-9.299,eChemPortal
FC(F)(F)C(F)(F)C(F)(F)I,Heptafluoropropyl iodide,2.564,ChemicalBook

The 4 highest values of log vapor pressure among the entries above:

| structure (SMILES) | name | log vapor pressure (log10 mmHg) | via |
|---|---|---|---|
| CCN(C)C | N,N-Dimethylethylamine | 2.691 | eChemPortal |
| FCOC(F)(F)C(F)(F)C(F)(F)F | 1,1,1,2,2,3,3-Heptafluoro-3-(fluoromethoxy)propane | 2.571 | ICF |
| FC(F)(F)C(F)(F)C(F)(F)I | Heptafluoropropyl iodide | 2.564 | ChemicalBook |
| C=C(Cl)C(=C)Cl | 2,3-Dichloro-1,3-butadiene | 1.952 | eChemPortal |